T1: GAD65 273-292 peptide on HLA-DRB1*04:01 (human)
T1 peptide: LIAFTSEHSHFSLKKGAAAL

T2: GAD65 377-396 peptide on HLA-DRB1*04:01 (human)
T2 peptide: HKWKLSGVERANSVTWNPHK


How the values were obtained:
[1] = biological target: T1, GAD65 273-292 peptide on HLA-DRB1*04:01; experiment: activation reporter or marker
[2] = biological target: T2, GAD65 377-396 peptide on HLA-DRB1*04:01; experiment: activation reporter or marker

binding result [1] | binding result [2] | Binder
recognises | – | Clone_244 (TCR) alpha TRAV23DV6 TRAJ34 CDR3: CAASEPDKLIF beta TRBV27 TRBJ1-2 CDR3: CASSSQGANYGYTF
– | recognises | Clone_109 (TCR) alpha TRAV29DV5 TRAJ34 CDR3: CAATTDKLIF beta TRBV7-2 TRBJ2-1 CDR3: CASSLAYGTHRYNEQFF
